Experimental data reported in publication PMC6393490.

Biological target: FITC-IKKβ_(KKRR)(701–745) (UniProt O14920)
Experiment: fluorescence polarisation; fluorescence anisotropy, direct binding; 30 nM N-terminally FITC-labelled IKKβ_(KKRR)(701–745) as reporter, NEMO proteins at varying concentrations; room temperature; 2 mM Tris, 100 mM NaCl, 2 mM DTT, pH 8.0, 0.1 mg/mL IgG, 0.5 mM Thesit; triplicate; quadratic binding equation

Kd	Substance
22 nM	NEMO-CC (from UniProt Q9Y6K9 51-112) (domain or fragment)
35 nM	NEMO-I65M (from UniProt Q9Y6K9 51-112) (domain or fragment)
